According to patent US7150974B1, “Parathyroid hormone receptor binding method” (The General Hospital Corporation, priority 1991, dated 2006):

What was measured:
[1] = target: T1, human kidney PTH/PTHrP receptor (Homo sapiens, UniProt Q03431, L389Q); assay: Radioreceptor assay, COS-7 cells transiently expressing human kidney PTH/PTHrP receptor (HKrk); settings: read-out: apparent Kd (affinity); HKrk expressed in COS-7 cells; competition binding, FIGS. 17A, 17C
T1 construct: The full-length human kidney PTH/PTHrP receptor cDNA, HKrk, was constructed using the BamHI/PvuII fragment of PCR clone #2 and HK-2; expressed in transfected cells; host or cells: COS-7 cells, transient (DEAE/Dextran), pcDNAI
T1 sequence (Q03431 27-593 L389Q): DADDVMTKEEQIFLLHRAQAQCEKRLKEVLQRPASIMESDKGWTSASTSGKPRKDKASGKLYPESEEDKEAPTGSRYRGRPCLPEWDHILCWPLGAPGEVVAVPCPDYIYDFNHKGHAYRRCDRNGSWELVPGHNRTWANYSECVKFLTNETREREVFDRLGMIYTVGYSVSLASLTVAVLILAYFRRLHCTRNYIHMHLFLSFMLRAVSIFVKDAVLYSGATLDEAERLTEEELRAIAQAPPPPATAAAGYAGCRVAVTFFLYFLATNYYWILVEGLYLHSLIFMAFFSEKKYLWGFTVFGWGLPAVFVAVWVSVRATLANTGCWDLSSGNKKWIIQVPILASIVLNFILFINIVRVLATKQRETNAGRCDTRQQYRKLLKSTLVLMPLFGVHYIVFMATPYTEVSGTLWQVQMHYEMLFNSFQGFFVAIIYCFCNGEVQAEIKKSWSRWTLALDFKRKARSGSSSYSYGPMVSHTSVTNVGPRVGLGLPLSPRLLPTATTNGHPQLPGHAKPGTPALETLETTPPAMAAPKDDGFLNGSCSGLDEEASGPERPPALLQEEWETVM
Experimental: (§1) In brief, the labeled peptide was dissolved in 0.1% trifluoracetic acid (TFA), applied to a C18 Sep-pak cartridge (Waters Associates, Inc., Milford, Mass.) and eluted with a solution of 60% acetonitrile in 0.1% TFA. After lyophilization, the radioligand then was applied to C18-μBondapak column (3.9 mm×30 cm. Waters Associates) and eluted over 30 min with a linear gradient of 30-50% acetonitrile-0.1% TFA at a flow rate of 2 ml/min.
(§2) COS-7 cells were grown in 15 cm plates in DMEM, 10% heat-inactivated […], 10 mg/L gentamycin until 80-90% confluent. Twenty-four hours after transfection by the DEAE/Dextran method (Sambrook et al., supra), with 1-2 μg of plasmid DNA, the cells were trypsinized and replated in multiwell plastic dishes (16 or 35 mm diameter, Costar, Cambridge, Mass.) at a cell concentration of 5×10^4 cells/cm^2). […] After continuing culture for another 48 h, radiorecepter assays were performed. The culture medium was replaced with buffer containing 50 mM Tris-HCL (pH 7.7), 100 mM NaCl, 2 mM CaCl2, 5 mM KCL, 0.5% heat-inactivated fetal bovine serum (GIBCO), and 5% heat-inactivated horse serum (KC Biological Inc., Lenexa, Kans.) immediately before studies were initiated.
(§3) Incubations were terminated by aspirating the buffer, and repeatedly (×3) washing the culture dishes, containing the adherent cells with chilled 0.9% NaCl solution, over a 15 sec period. Cell-bound radioactivity was recovered by the sequential addition (×3) of 1 N NaOH (200 μl) to each well. After 30 min at room temperature, the NaOH was transferred to a glass tube. A second and third extraction with 1 N NaOH (200 μl) were combined with the first, and the total radioactivity was counted in a γ-spectrometer (Packard Instruments, Downers Grove, Ill.).

[2] = target: T2, rat bone PTH/PTHrP receptor (Rattus norvegicus, UniProt P25961, E586G); assay: Radioreceptor assay, COS cells expressing rat bone PTH/PTHrP receptor (R15B); settings: read-out: apparent Kd (affinity); R15B expressed in COS-7 cells; competition binding, FIGS. 17B, 17D
T2 construct: expressed in transfected cells; host or cells: COS / COS-7 cells, transient, plasmid R15B (pcDNA I)
T2 sequence (P25961 27-591 E586G): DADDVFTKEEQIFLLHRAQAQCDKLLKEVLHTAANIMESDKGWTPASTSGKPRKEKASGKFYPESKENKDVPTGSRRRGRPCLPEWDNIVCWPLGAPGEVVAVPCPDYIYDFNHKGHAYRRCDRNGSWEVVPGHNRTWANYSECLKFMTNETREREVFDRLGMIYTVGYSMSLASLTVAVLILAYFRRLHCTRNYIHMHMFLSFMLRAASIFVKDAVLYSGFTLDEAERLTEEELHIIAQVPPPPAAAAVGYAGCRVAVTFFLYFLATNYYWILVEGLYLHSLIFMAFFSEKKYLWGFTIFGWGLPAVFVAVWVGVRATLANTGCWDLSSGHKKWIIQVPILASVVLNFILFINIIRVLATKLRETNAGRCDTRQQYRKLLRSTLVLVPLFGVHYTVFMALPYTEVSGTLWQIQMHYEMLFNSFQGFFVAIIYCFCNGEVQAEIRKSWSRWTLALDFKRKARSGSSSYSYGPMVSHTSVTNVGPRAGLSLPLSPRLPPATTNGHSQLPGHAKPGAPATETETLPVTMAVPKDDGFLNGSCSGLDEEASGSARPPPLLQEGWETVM
Experimental: as §1, §2, §3

| Substance | Kd [1] [nM] | Kd [2] [nM] |
| --- | --- | --- |
| [Nle^8,18, Tyr^34]bPTH(1-34)amide | ~5 | ~10 |
| [Nle^8,18, Tyr^34]bPTH(3-34)amide | ~7 | ~45 |
| [Nle^8,18, Tyr^34]bPTH(7-34)amide | ~60 | ~2000 |
